According to PMC5792450, “PRRT2 Regulates Synaptic Fusion by Directly Modulating SNARE Complex Assembly” (Cell Reports, 2018):

Key:
[1] = molecular target: assembled SNARE complex (VAMP2/syntaxin1a/SNAP25) (UniProt P63044 1-116; P32851 1-288; P60879 1-206); test: MST; t-SNARE or assembled SNARE complex titrated in solution, up to ∼150 μM t-SNARE and ∼60 μM SNARE complex; binding not saturated; soluble conditions; Syt1 tested likewise; conditions: both partners purified
[2] = molecular target: t-SNARE (syntaxin1a/SNAP25) (UniProt P32851 1-288; P60879 1-206); test: cell-based or functional assay

B1: proline-rich transmembrane protein 2 (PRRT2), full-length, wild type (natural protein, human, UniProt Q7Z6L0 1-340, looked up)
chain: MAASSSEISEMKGVEESPKVPGEGPGHSEAETGPPQVLAGVPDQPEAPQPGPNTTAAPVDSGPKAGLAPETTETPAGASETAQATDLSLSPGGESKANCSPEDPCQETVSKPEVSKEATADQGSRLESAAPPEPAPEPAPQPDPRPDSQPTPKPALQPELPTQEDPTPEILSESVGEKQENGAVVPLQAGDGEEGPAPEPHSPPSKKSPPANGAPPRVLQQLVEEDRMRRAHSGHPGSPRGSLSRHPSSQLAGPGVEGGEGTQKPRDYIILAILSCFCPMWPVNIVAFAYAVMSRNSLQQGDVDGAQRLGRVAKLLSIVALVGGVLIIIASCVINLGVYK
notes: PRRT2, human, full length, cloned into pGEX6p-1; In the fusion, docking and FRET assays it was reconstituted into liposomes; also called purified PRRT2; recombinant PRRT2; source: E. coli Rosetta2(DE3), purified (glutathione agarose, cleaved off the resin with PreScission Protease)
With B1 the Kd [1] was ≥ 50 µM and the “half-maximal inhibition of lipid mixing, from the dose-response curve of PRRT2/t-SNARE ratios” value [2] was ~1 copy of PRRT2 for each t-SNARE.
